A word on the pIC50: it is −log10 of the IC50, conventionally taken in molar units.

Protein sequences, listed by entry. Tags and fused reporters are not part of them. Residues count along the entry.
UniProt Q13224, 27-1484: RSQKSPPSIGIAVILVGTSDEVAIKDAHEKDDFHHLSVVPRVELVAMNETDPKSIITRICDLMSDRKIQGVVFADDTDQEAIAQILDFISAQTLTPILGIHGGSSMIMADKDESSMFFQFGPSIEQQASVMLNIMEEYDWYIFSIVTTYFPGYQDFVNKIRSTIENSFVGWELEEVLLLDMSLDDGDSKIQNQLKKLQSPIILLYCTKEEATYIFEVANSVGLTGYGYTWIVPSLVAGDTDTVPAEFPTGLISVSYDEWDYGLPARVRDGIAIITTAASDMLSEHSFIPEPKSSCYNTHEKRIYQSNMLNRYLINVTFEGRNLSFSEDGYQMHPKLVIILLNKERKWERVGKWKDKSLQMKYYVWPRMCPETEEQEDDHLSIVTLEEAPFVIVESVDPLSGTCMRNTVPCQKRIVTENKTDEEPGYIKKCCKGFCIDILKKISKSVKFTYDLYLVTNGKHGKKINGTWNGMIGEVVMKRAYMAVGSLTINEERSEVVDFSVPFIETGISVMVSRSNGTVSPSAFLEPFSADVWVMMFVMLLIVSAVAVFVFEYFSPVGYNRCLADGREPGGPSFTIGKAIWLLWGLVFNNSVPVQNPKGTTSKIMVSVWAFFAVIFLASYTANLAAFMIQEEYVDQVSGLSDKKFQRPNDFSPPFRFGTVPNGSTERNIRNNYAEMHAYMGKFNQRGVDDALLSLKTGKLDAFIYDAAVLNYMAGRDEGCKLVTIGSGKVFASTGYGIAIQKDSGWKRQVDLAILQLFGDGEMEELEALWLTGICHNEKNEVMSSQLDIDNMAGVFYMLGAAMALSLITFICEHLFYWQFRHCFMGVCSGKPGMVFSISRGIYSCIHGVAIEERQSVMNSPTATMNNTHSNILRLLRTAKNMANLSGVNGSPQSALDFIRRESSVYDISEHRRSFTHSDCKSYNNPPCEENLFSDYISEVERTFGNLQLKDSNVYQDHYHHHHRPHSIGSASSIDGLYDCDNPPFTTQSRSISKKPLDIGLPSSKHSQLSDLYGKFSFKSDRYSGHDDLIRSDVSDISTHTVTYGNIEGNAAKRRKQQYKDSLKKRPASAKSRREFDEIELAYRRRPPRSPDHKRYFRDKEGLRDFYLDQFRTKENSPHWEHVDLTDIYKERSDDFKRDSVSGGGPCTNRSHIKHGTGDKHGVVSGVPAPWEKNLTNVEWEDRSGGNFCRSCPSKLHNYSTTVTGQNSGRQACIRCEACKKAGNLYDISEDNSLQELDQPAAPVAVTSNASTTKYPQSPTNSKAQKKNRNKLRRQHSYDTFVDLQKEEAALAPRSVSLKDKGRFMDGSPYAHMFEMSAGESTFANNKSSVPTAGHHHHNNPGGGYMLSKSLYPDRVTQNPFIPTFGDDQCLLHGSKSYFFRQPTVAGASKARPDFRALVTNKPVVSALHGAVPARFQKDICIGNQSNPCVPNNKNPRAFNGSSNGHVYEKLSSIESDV

Experiment [1] deals with NR1/NR2B (Homo sapiens (Human), UniProt Q05586+Q13224). Put plainly: Cell assay: FDSS Ca2+ influx inhibition in HEK293 cells expressing NR1/NR2B.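 Also: Fluo-8 Ca2+ signal read on Hamamatsu FDSS 6000 after glutamate, glycine and Ca2+ challenge following 10 min compound preincubation, end/baseline fluorescence ratio compared with MK801 control.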
The target in experiment [2] is NR1/NR2B (Homo sapiens (Human), UniProt Q13224). The description is as above. The following applies: read-out: NR2B NAM IC50.

The structures appear in SMILES notation. pIC50: −log10 of the molar value.

Take `O[C@@]1(c2ccccc2)C[C@H]2CN(c3cccc(C(F)(F)F)n3)C[C@H]2C1` [Example 83, 5-phenyl-2-[6-(trifluoromethyl)pyridin-2-yl]-octahydrocyclopenta[c] pyrrol-5-ol]: the pIC50 on NR1/NR2B [1] was < 5.00; at NR1/NR2B [2], 5.00.

The values are drawn from US10052306B2 (LUC THERAPEUTICS, INC., priority 2013, dated 2018).
